# Experimental data published in article PMC3759966 (The Biochemical journal, 2009).
# Target: T1, IKKε (Homo sapiens, UniProt Q14164)
# T1 sequence (Q14164 1-716): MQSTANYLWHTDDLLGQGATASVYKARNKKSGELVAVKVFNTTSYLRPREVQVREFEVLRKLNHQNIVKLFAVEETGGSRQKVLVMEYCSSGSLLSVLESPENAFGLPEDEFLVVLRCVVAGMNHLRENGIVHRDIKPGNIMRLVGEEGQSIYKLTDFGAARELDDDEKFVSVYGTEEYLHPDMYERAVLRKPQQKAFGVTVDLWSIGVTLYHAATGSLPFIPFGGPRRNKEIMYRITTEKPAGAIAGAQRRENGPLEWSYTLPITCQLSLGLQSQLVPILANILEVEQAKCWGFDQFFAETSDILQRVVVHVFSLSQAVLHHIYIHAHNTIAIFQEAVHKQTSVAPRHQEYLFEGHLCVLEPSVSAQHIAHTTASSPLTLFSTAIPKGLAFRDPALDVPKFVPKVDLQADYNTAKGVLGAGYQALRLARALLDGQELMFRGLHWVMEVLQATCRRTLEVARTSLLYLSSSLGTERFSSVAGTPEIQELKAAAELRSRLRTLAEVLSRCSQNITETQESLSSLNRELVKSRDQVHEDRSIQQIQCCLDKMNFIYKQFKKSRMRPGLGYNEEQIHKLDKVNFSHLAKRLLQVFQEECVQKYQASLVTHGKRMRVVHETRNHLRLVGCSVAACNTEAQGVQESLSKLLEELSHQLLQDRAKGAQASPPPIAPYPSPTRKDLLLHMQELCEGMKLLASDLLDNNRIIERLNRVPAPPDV
# Assay: Kinase profiling panel
# Assay type: biochemical
# Conditions: read-out: percentage of kinase activity compared with control
structure (smiles),measurement,value
"CCN(CC)CCNC(=O)c1c(C)[nH]c(/C=C2\C(=O)Nc3ccc(F)cc32)c1C [Sunitinib, sunitinib]",remaining activity at 0.1 µM,101 ± 1%
